Measurements reported in PubChem BioAssay (NCI).
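Each compound was tested at five concentrations against cells in 96-well plates for 48 hours. GI50: concentration for 50% inhibition of growth. At the TGI there is no net growth.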

Tests used:
Experiment in all cases: inhibition of tumour cell growth, NCI panel, 48 h
786-0 renal = tested on: 786-0 renal
A498 renal = tested on: A498 renal
A549 NSCLC = tested on: A549 NSCLC
ACHN renal = tested on: ACHN renal
BT-549 breast = tested on: BT-549 breast
CAKI-1 renal = tested on: CAKI-1 renal
CCRF-CEM leukemia = tested on: CCRF-CEM leukemia
COLO 205 colon = tested on: COLO 205 colon
DU-145 prostate = tested on: DU-145 prostate
EKVX NSCLC = tested on: EKVX NSCLC
HCC-2998 colon = tested on: HCC-2998 colon
HCT-116 colon = tested on: HCT-116 colon
HCT-15 colon = tested on: HCT-15 colon
HL-60(TB) leukemia = tested on: HL-60(TB) leukemia
HOP-62 NSCLC = tested on: HOP-62 NSCLC
HOP-92 NSCLC = tested on: HOP-92 NSCLC
HS 578T breast = tested on: HS 578T breast
HT29 colon = tested on: HT29 colon
IGROV1 ovarian = tested on: IGROV1 ovarian
K-562 leukemia = tested on: K-562 leukemia
KM12 colon = tested on: KM12 colon
LOX IMVI melanoma = tested on: LOX IMVI melanoma
M14 melanoma = tested on: M14 melanoma
MALME-3M melanoma = tested on: MALME-3M melanoma
MCF7 breast = tested on: MCF7 breast
MDA-MB-231 breast = tested on: MDA-MB-231 breast
MDA-MB-435 = tested on: MDA-MB-435
NCI-H226 lung = tested on: NCI-H226 lung
NCI-H23 lung = tested on: NCI-H23 lung
NCI-H322M lung = tested on: NCI-H322M lung
NCI-H460 lung = tested on: NCI-H460 lung
NCI-H522 lung = tested on: NCI-H522 lung
NCI/ADR-RES ovarian = tested on: NCI/ADR-RES ovarian
OVCAR-3 ovarian = tested on: OVCAR-3 ovarian
OVCAR-4 ovarian = tested on: OVCAR-4 ovarian
OVCAR-5 ovarian = tested on: OVCAR-5 ovarian
OVCAR-8 ovarian = tested on: OVCAR-8 ovarian
PC-3 prostate = tested on: PC-3 prostate
RPMI-8226 leukemia = tested on: RPMI-8226 leukemia
RXF 393 renal = tested on: RXF 393 renal
SF-268 CNS = tested on: SF-268 CNS
SF-295 CNS = tested on: SF-295 CNS
SF-539 CNS = tested on: SF-539 CNS
SK-MEL-2 melanoma = tested on: SK-MEL-2 melanoma
SK-MEL-28 melanoma = tested on: SK-MEL-28 melanoma
SK-MEL-5 melanoma = tested on: SK-MEL-5 melanoma
SK-OV-3 ovarian = tested on: SK-OV-3 ovarian
SN12C renal = tested on: SN12C renal
SNB-19 CNS = tested on: SNB-19 CNS
SNB-75 CNS = tested on: SNB-75 CNS
SR leukemia = tested on: SR leukemia
SW-620 colon = tested on: SW-620 colon
T-47D breast = tested on: T-47D breast
TK-10 renal = tested on: TK-10 renal
U251 CNS = tested on: U251 CNS
UACC-257 melanoma = tested on: UACC-257 melanoma
UACC-62 melanoma = tested on: UACC-62 melanoma
UO-31 renal = tested on: UO-31 renal

COc1ccc2nccc(C=O)c2c1.O=[N+]([O-])c1cc([N+](=O)[O-])c(O)c([N+](=O)[O-])c1 was tested, and the GI50 (786-0 renal) was 16.5 µM, the TGI (786-0 renal) was > 100 µM and the TGI (A498 renal) was 51 µM. The GI50 (A549 NSCLC) was > 100 µM, the TGI (A549 NSCLC) was > 100 µM and the GI50 (ACHN renal) was 5.44 µM. It also gave a TGI (ACHN renal) of 33.9 µM, a GI50 (BT-549 breast) of 11.7 µM and a TGI (BT-549 breast) of 77.9 µM. It also gave a GI50 (CAKI-1 renal) of 37.2 µM, a TGI (CAKI-1 renal) of 76 µM and a GI50 (CCRF-CEM leukemia) of 0.316 µM. For the same compound, the TGI (CCRF-CEM leukemia) was 54.6 µM, the GI50 (COLO 205 colon) was 15 µM and the TGI (COLO 205 colon) was 67.6 µM. For the same compound, the GI50 (DU-145 prostate) was 1.79 µM, the TGI (DU-145 prostate) was 18.9 µM and the GI50 (EKVX NSCLC) was 36.6 µM. For the same compound, the TGI (EKVX NSCLC) was 66.4 µM, the GI50 (HCC-2998 colon) was 32.2 µM and the TGI (HCC-2998 colon) was 84.6 µM. It also gave a GI50 (HCT-116 colon) of 0.083 µM, a TGI (HCT-116 colon) of 7.47 µM and a GI50 (HCT-15 colon) of 0.216 µM. The TGI (HCT-15 colon) was > 100 µM, the TGI (HL-60(TB) leukemia) was 0.869 µM and the GI50 (HOP-62 NSCLC) was 9.75 µM. For the same compound, the TGI (HOP-62 NSCLC) was 52.2 µM, the GI50 (HOP-92 NSCLC) was 0.816 µM and the TGI (HOP-92 NSCLC) was 50 µM. It also gave a GI50 (HS 578T breast) of 6.17 µM, a TGI (HS 578T breast) of 26.7 µM and a GI50 (HT29 colon) of 3.01 µM. For the same compound, the TGI (HT29 colon) was 15.7 µM, the GI50 (IGROV1 ovarian) was 9.07 µM and the TGI (IGROV1 ovarian) was 66.7 µM. The GI50 (K-562 leukemia) was 0.0744 µM, the TGI (K-562 leukemia) was 0.892 µM and the GI50 (KM12 colon) was 30 µM. The TGI (KM12 colon) was > 100 µM, the GI50 (LOX IMVI melanoma) was 0.616 µM and the TGI (LOX IMVI melanoma) was 6.35 µM. It also gave a GI50 (M14 melanoma) of 3.58 µM, a TGI (M14 melanoma) of 37.1 µM and a GI50 (MALME-3M melanoma) of 2.02 µM. For the same compound, the TGI (MALME-3M melanoma) was 29.3 µM, the GI50 (MCF7 breast) was 0.258 µM and the TGI (MCF7 breast) was 9.47 µM. The GI50 (MDA-MB-231 breast) was 9.23 µM, the TGI (MDA-MB-231 breast) was > 100 µM and the GI50 (MDA-MB-435) was 3.89 µM. For the same compound, the TGI (MDA-MB-435) was 27.1 µM, the GI50 (NCI-H226 lung) was 23.8 µM and the TGI (NCI-H226 lung) was > 100 µM. It also gave a GI50 (NCI-H23 lung) of 7.03 µM, a TGI (NCI-H23 lung) of 25 µM and a GI50 (NCI-H322M lung) of 53.6 µM. For the same compound, the TGI (NCI-H322M lung) was > 100 µM, the GI50 (NCI-H460 lung) was 37.3 µM and the TGI (NCI-H460 lung) was 59.2 µM. For the same compound, the GI50 (NCI-H522 lung) was 29.6 µM, the TGI (NCI-H522 lung) was > 100 µM and the GI50 (NCI/ADR-RES ovarian) was 1.71 µM. The TGI (NCI/ADR-RES ovarian) was > 100 µM, the GI50 (OVCAR-3 ovarian) was 0.625 µM and the TGI (OVCAR-3 ovarian) was 2.94 µM. For the same compound, the GI50 (OVCAR-4 ovarian) was 4.32 µM, the TGI (OVCAR-4 ovarian) was > 100 µM and the GI50 (OVCAR-5 ovarian) was 33.8 µM. It also gave a TGI (OVCAR-5 ovarian) of 86.7 µM, a GI50 (OVCAR-8 ovarian) of 0.451 µM and a TGI (OVCAR-8 ovarian) of 11.9 µM. It also gave a GI50 (PC-3 prostate) of 3.72 µM, a TGI (PC-3 prostate) of 28.6 µM and a GI50 (RPMI-8226 leukemia) of 0.358 µM. The TGI (RPMI-8226 leukemia) was 25.8 µM, the GI50 (RXF 393 renal) was 87.5 µM and the TGI (RXF 393 renal) was > 100 µM. For the same compound, the GI50 (SF-268 CNS) was 5.4 µM, the TGI (SF-268 CNS) was 59 µM and the GI50 (SF-295 CNS) was 5.69 µM. The TGI (SF-295 CNS) was 41.4 µM, the GI50 (SF-539 CNS) was 0.379 µM and the TGI (SF-539 CNS) was 1.66 µM. For the same compound, the GI50 (SK-MEL-2 melanoma) was 20.5 µM, the TGI (SK-MEL-2 melanoma) was 78.3 µM and the GI50 (SK-MEL-28 melanoma) was 4.65 µM. For the same compound, the TGI (SK-MEL-28 melanoma) was 22.2 µM, the GI50 (SK-MEL-5 melanoma) was 2.38 µM and the TGI (SK-MEL-5 melanoma) was 13.2 µM. The GI50 (SK-OV-3 ovarian) was 20.7 µM, the TGI (SK-OV-3 ovarian) was > 100 µM and the GI50 (SN12C renal) was 2.31 µM. The TGI (SN12C renal) was 28.9 µM, the GI50 (SNB-19 CNS) was 2.22 µM and the TGI (SNB-19 CNS) was 24.2 µM. The GI50 (SNB-75 CNS) was 14.6 µM, the TGI (SNB-75 CNS) was 77.1 µM and the GI50 (SR leukemia) was 0.025 µM. For the same compound, the TGI (SR leukemia) was 0.166 µM, the GI50 (SW-620 colon) was 0.245 µM and the TGI (SW-620 colon) was 47.7 µM. It also gave a GI50 (T-47D breast) of 0.0614 µM, a TGI (T-47D breast) of 0.437 µM and a GI50 (TK-10 renal) of 32.2 µM. For the same compound, the TGI (TK-10 renal) was 88.8 µM, the GI50 (U251 CNS) was 0.364 µM and the TGI (U251 CNS) was 33.3 µM. The GI50 (UACC-257 melanoma) was 9.91 µM, the TGI (UACC-257 melanoma) was 61.6 µM and the GI50 (UACC-62 melanoma) was 11 µM. The TGI (UACC-62 melanoma) was 68.7 µM, the GI50 (UO-31 renal) was 28.5 µM and the TGI (UO-31 renal) was > 100 µM.
